Assay results from article PMC10779987, “Machine-Learning- and Structure-Based Virtual Screening for Selecting Cinnamic Acid Derivatives as Leishmania major DHFR-TS Inhibitors” (Molecules, 2023).

By UniProt entry, the sequences of proteins in these tests, tags left out. Where a name states a change or a piece, a line headed by the entry shows the natural chain unless it says otherwise.
UniProt P07382: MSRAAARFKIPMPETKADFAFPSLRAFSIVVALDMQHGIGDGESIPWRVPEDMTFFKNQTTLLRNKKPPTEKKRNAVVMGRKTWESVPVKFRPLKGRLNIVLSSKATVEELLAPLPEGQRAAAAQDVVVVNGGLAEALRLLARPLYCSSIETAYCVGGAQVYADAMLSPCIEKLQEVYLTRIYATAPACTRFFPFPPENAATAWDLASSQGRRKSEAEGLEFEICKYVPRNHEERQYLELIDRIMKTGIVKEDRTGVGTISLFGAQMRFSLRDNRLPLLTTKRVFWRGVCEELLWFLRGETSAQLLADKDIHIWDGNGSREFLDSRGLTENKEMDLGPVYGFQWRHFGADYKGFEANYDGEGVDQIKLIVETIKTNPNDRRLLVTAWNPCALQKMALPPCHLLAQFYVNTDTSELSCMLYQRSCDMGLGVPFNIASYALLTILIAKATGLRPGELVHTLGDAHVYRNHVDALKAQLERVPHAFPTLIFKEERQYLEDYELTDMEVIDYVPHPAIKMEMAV

Target: LmDHFR-TS (Leishmania major, UniProt P07382)
Assay: LmDHFR-TS enzymatic inhibition assay (spectrophotometric standard DHFR assay)
Conditions: HsDHFR versus LmDHFR-TS

COc1cc(C[C@H]2COC(=O)[C@@H]2Cc2cc(OC)c3c(c2)[C@H](CO)[C@@H](c2ccc(O)c(OC)c2)O3)ccc1O [Compound 308, isolappaol A]
SI (selectivity index): 4.4

COc1ccc(C[C@H]2COC(=O)[C@@H]2Cc2cc(OC)c(O)c(-c3cc(C[C@H]4C(=O)OC[C@@H]4Cc4ccc(OC)c(OC)c4)cc(OC)c3O)c2)cc1OC [Compound 306, diarctigenin]
SI (selectivity index): 4.6
